The target in one assay is α4β1 (Homo sapiens, UniProt P05556+P13612). In words: Ramos Cell Adhesion Assay (α4β1 Mediated Adhesion/VCAM-1). The conditions noted are these: read-out: α4β1 IC50; Ramos cell adhesion to hVCAM-1.
The target of the next assay is human α4β7 integrin (Homo sapiens, UniProt P13612+P26010). In words: α4β7-K562 Cell Adhesion Assay (α4β7 Mediated Adhesion/MAdCAM-1). The settings on record: read-out: α4β7 IC50; α4β7-K562 cell adhesion to hMAdCAM-1.
Assay [1] relates to alpha 4 beta 7-positive cells. The assay can be described thus: Intraperitoneal Delayed Type Hypersensitivity (IP-DTH) Response. It counts as in vivo, mice. The settings on record: 30 mg/kg sc bid × 2; peritoneal cells 48 h after antigen challenge.

By UniProt entry, the sequences of proteins in these tests, tags left out. Residues count along the entry.
UniProt P05556, 21-798 limits assumed: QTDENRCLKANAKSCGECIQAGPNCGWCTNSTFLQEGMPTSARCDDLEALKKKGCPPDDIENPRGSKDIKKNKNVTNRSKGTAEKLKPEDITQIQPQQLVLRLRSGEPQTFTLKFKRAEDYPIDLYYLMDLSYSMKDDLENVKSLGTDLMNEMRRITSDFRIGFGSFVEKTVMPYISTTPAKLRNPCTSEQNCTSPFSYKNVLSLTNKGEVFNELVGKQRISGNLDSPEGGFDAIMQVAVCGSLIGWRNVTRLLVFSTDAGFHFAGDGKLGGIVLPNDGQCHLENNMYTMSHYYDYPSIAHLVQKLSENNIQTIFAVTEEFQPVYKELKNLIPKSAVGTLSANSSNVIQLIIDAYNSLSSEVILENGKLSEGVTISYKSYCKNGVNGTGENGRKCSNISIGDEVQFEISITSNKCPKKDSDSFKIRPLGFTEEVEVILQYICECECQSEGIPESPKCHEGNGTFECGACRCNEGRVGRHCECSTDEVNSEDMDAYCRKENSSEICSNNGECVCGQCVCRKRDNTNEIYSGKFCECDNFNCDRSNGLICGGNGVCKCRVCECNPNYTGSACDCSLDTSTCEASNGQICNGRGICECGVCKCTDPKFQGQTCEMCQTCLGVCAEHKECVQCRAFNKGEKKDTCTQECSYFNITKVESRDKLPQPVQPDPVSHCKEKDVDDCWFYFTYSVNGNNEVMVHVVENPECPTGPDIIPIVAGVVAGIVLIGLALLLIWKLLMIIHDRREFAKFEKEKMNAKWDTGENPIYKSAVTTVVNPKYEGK
UniProt P13612, 34-1032 limits assumed: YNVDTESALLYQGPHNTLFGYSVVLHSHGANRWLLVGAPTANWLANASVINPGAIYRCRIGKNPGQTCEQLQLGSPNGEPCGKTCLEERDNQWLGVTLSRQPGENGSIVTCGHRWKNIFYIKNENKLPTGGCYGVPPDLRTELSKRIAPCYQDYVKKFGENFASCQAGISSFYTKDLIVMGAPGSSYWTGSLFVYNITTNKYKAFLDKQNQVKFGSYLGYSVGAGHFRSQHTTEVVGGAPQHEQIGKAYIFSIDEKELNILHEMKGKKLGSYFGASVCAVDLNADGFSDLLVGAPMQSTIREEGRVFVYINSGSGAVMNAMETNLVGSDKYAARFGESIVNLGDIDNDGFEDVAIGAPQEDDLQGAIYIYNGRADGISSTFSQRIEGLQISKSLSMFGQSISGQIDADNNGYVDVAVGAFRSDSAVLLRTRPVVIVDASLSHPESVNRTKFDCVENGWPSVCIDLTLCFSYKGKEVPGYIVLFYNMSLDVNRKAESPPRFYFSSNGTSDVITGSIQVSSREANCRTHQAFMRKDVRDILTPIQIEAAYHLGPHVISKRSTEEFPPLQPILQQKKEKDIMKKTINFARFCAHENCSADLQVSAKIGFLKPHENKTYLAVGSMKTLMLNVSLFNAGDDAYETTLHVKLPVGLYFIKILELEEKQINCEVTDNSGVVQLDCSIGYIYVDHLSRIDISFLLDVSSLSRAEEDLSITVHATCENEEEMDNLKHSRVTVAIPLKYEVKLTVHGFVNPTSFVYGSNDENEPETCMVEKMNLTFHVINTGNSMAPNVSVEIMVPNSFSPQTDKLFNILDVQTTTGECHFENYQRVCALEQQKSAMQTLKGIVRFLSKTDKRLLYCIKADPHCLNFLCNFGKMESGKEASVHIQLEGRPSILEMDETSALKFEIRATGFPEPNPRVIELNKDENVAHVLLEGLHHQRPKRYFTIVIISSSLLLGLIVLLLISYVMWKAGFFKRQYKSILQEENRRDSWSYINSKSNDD
UniProt P26010, 20-798 limits assumed: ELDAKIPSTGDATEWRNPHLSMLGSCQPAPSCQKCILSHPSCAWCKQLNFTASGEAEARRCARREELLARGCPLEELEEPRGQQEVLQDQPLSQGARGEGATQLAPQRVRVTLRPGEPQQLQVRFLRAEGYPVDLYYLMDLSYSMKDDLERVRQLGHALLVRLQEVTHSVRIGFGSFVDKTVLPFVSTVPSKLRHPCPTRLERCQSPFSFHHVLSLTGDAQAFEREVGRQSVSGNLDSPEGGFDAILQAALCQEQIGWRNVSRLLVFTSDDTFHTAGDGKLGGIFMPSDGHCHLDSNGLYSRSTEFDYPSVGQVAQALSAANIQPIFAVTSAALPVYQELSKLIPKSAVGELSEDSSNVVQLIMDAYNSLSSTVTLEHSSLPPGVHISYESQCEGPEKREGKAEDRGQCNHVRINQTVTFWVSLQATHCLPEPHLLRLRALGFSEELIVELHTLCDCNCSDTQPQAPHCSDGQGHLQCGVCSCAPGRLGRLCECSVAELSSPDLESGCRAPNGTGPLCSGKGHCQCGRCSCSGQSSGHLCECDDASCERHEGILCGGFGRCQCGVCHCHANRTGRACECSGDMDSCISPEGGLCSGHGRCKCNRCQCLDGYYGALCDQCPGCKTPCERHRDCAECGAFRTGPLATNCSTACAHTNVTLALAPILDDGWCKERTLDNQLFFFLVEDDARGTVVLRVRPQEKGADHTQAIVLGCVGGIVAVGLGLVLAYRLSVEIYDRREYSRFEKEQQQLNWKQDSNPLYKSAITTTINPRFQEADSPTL

Here are results for three compounds from patent US20050192279A1, “Pyridazinones as antagonists of alpha4 integrins” (priority 2004, published 2005).

`COc1cnn(C)c(=O)c1-c1ccc(C[C@H](NC(=O)[C@@H]2C3CCC(CC3)N2C(=O)CCC(C)O)C(=O)O)cc1` (stereo partly shown): the IC50 (commonly the point on the concentration scale where inhibition reaches its midpoint) at α4β1 was 604 nM; at human α4β7 integrin, 585 nM.
`O=C(N[C@@H](Cc1ccc(-c2c(OCCO)cnn(CCO)c2=O)cc1)C(=O)O)c1c(Cl)cccc1Cl`: the values for the IC50 at α4β1 and on human α4β7 integrin were 291 nM and 5 nM, respectively. The “% Decrease in recruited α4β7 + cells” value in assay [1] amounted to 0%.
As for `COc1cnn(C)c(=O)c1-c1ccc(C[C@H](NC(=O)C2CCCN2C(=O)OCc2ccccc2)C(=O)O)cc1` (stereo partly shown), the figures for the IC50 on α4β1 and on human α4β7 integrin were 471 nM and 400 nM, respectively.
